The source of these data is article PMC8874853 (Molecules, 2022).

By UniProt entry, the sequences of proteins in these tests, tags left out. Residues count along the entry.
UniProt P02769, 25-607: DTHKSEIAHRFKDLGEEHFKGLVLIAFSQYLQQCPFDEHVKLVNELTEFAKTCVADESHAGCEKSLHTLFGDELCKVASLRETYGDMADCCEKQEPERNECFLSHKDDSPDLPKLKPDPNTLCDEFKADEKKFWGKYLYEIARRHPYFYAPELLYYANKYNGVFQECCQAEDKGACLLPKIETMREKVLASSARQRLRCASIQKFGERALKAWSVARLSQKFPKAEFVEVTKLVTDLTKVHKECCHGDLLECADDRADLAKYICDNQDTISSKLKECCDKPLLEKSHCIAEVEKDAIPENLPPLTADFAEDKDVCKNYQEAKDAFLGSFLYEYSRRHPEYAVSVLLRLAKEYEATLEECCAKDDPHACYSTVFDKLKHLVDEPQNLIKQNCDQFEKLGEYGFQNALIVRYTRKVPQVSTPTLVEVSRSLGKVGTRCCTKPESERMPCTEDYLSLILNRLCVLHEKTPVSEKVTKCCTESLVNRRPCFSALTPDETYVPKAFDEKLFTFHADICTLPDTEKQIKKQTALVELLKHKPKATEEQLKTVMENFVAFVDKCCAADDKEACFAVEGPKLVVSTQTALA

The assay has as its target T1, BSA (Bos taurus, UniProt P02769).
T1 construct: purchased Sigma-Aldrich (St. Louis, MO, USA)
Put plainly: Synchronous fluorescence spectroscopy (SFS). The assay is classed as binding, bovine. The note with it: ∆λ = 60 nm, BSA-ERL. The text has this:
The microenvironmental changes in the fluorophore residues were identified with the SFS technique. The changes in the amino acid residues Tyr (tyrosine) and Trp (tryptophan) can be observed at ∆λ = 15 nm and ∆λ = 60 nm. A shift in the emission spectra indicates changes in the polarity of amino acid residues around the fluorophore molecules.
The microenvironment alterations in the fluorophore residues can be identified with synchronous fluorescence spectroscopy. The changes in emission wavelength indicate polarity change in the fluorophore residue microenvironment. The synchronous spectra recorded at ∆λ = 15 nm and ∆λ = 60 nm provide information about the Tyr and Trp residue microenvironment.

Each structure is given as a SMILES string.

As for `C#Cc1cccc(Nc2ncnc3cc(OCCOC)c(OCCOC)cc23)c1` [ERL, Erlotinib], the “shift of synchronous spectra for Trp (blue-shift)” value is given as 1 nm.
